Measured values from patent publication US7320785B2, “Compositions and methods for modulation of DARPP-32 phosphorylation” (The Rockefeller University, priority 2001, dated 2008).
Where two headings read alike, the source gives them in different places.

Tested on: DARPP-32
Assay: DARPP-32 phosphorylation in mouse brain slices, immunoblotting with phosphorylation state-specific antibodies

SMILES: CCCN1CCC[C@@H]2Cc3n[nH]cc3C[C@H]21 [Quinpirole]
- activity at 10 µM (2 min, read-out: Percent Phospho-Ser137): 135%
- activity at 10 µM (2 min, read-out: Percent Phospho-Thr34): 65%
- activity at 10 µM (10 min, read-out: Percent Phospho-Thr75): 112%
